{"sequences": {"note": "Protein sequences, listed by entry. Tags and fused reporters are not part of them. Residues count along the entry.", "UniProt P43220, 24-463": "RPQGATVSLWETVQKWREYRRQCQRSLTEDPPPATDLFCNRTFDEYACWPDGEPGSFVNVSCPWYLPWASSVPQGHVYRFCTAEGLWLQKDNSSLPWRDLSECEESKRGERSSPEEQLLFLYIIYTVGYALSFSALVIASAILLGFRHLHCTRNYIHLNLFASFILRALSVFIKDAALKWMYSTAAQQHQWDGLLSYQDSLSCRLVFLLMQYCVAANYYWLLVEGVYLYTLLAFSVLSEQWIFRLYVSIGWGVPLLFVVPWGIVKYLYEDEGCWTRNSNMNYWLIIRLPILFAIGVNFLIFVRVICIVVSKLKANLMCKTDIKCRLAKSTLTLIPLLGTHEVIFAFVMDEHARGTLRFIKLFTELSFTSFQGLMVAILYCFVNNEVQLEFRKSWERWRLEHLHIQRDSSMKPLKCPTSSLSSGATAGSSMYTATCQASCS"}, "source": "patent US10604554B2", "about": "“Double-acylated GLP-1 derivatives” (Novo Nordisk A/S, priority 2012, dated 2020)", "key": {"[1]": {"target": "T1, human GLP-1 receptor (Homo sapiens, UniProt P43220)", "T1 construct": "expressed in transfected cells; host or cells: BHK cells, clone FCW467-12A/KZ10-1 (parent line BHKTS13), further transfected with CRE luciferase", "experiment": "GLP-1 receptor binding (SPA, displacement of 125I-GLP-1)", "description": "The purpose of this experiment is to investigate the binding to the GLP-1 receptor of the GLP-1 derivatives, and how the binding is potentially influenced by the presence of albumin. This is done in an in vitro experiment as described below.\nIn order to test the binding of the derivatives to albumin, the assay was performed with a low concentration of albumin (0.001%—corresponding to the residual amount thereof in the tracer), as well as with a high concentration of albumin (2.0% added). A shift in the binding affinity, IC50, is an indication that the peptide in question binds to albumin, and thereby a prediction of a potential protracted pharmacokinetic profile of the peptide in question in animal models.\nSpecies (in vitro): Hamster\nBiological End Point: Receptor Binding\nA stable transfected cell line and a high expressing clone were selected for screening. […]\nThe cells (approx. 80% confluence) were washed twice in PBS and harvested with Versene (aqueous solution of the tetrasodium salt of ethylenediaminetetraacetic acid), following which they were separated by centrifugation at 1000 rpm for 5 min. […] The resulting pellet was resuspended in Buffer 2, and the protein concentration was determined. […]\nTest compounds, membranes, SPA-particles and [^125I]-GLP-1(7-36)NH2 were diluted in assay buffer. […] The plates were centrifuged (1500 rpm, 10 min) and counted in Topcounter."}, "[2]": {"experiment": "in vivo", "conditions": "male, Sprague Dawley, rat, iv"}}, "note": "Read-outs that look alike come from different tables or passages of the source.", "data": [{"compound": "CC[C@H](C)[C@H](NC(=O)[C@H](Cc1ccccc1)NC(=O)[C@H](CCC(=O)O)NC(=O)[C@H](CCCCNC(=O)[C@@H](N)CCCCNC(=O)[C@@H](N)CCCCNC(=O)CC[C@H](NC(=O)CCCCCCCCCCCCCCC(=O)O)C(=O)O)NC(=O)[C@H](C)NC(=O)[C@H](C)NC(=O)[C@H](CCC(N)=O)NC(=O)CNC(=O)[C@H](CCC(=O)O)NC(=O)[C@H](CC(C)C)NC(=O)[C@H](Cc1ccc(O)cc1)NC(=O)[C@H](CO)NC(=O)[C@H](CO)NC(=O)[C@@H](NC(=O)[C@H](CC(=O)O)NC(=O)[C@H](CO)NC(=O)[C@@H](NC(=O)[C@H](Cc1ccccc1)NC(=O)[C@@H](NC(=O)CNC(=O)[C@H](CCC(=O)O)NC(=O)C(C)(C)NC(=O)[C@@H](N)Cc1c[nH]cn1)[C@@H](C)O)[C@@H](C)O)C(C)C)C(=O)N[C@@H](C)C(=O)N[C@@H](Cc1c[nH]c2ccccc12)C(=O)N[C@@H](CC(C)C)C(=O)N[C@H](C(=O)N[C@@H](CCCNC(=N)N)C(=O)NCC(=O)N[C@@H](CCCNC(=N)N)C(=O)N[C@@H](CCCCNC(=O)[C@@H](N)CCCCNC(=O)[C@@H](N)CCCCNC(=O)CC[C@H](NC(=O)CCCCCCCCCCCCCCC(=O)O)C(=O)O)C(=O)O)C(C)C", "note": "[Example 6, N^ε26-[(2S)-2-amino-6-[[(2S)-2-amino-6-[[(4S)-4-carboxy-4-(15-carboxypentadecanoylamino)butanoyl]amino]hexanoyl]amino]hexanoyl], N^ε37-[(2S)-2-amino-6-[[(2S)-2-amino-6-[[(4S)-4-carboxy-4-(15-carboxypentadecanoylamino)butanoyl]amino]hexanoyl]amino]hexanoyl]-[Aib^8,Arg^34,Lys^37]-GLP-1-(7-37)-peptide]", "values": [{"measurement": "IC50", "setting": "[1]; 0.001% HSA (low albumin), read-out: Receptor binding affinity IC50 (low HSA)", "result": 0.32, "unit": "nM"}, {"measurement": "IC50", "setting": "[1]; 2.0% HSA (high albumin), read-out: Receptor binding affinity IC50 (high HSA)", "result": "≥ 1000", "unit": "nM"}, {"measurement": "half-life", "setting": "[2]", "result": 25, "unit": "h"}]}]}
